Values of other authors in patent publication US5814460A, “Method for generating and screening useful peptides” (Diatide, Inc., priority 1995, dated 1998).

By UniProt entry, the sequences of proteins in these tests, tags left out. Residues count along the entry.
UniProt P02679, 27-433 limits assumed: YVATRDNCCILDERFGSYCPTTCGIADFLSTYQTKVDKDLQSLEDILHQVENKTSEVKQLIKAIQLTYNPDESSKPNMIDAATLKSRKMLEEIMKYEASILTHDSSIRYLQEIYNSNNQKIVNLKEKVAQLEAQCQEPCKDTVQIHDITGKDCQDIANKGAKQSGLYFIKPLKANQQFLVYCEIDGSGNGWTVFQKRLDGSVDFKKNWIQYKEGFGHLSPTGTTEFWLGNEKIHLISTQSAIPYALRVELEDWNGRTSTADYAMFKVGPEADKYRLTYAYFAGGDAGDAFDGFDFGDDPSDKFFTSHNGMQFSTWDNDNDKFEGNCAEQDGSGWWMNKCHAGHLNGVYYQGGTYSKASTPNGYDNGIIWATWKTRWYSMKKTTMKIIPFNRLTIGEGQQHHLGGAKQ
UniProt P02679, 114-432 limits assumed: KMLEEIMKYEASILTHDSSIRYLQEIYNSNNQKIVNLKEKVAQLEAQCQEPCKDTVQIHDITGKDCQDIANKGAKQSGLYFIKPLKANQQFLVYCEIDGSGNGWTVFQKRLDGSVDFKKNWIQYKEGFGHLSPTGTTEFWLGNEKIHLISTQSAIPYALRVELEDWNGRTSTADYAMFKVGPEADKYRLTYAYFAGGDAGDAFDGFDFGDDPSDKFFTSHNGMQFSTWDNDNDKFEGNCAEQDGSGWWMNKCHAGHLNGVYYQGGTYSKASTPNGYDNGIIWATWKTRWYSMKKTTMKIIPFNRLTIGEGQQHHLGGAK
UniProt P05106, 27-788: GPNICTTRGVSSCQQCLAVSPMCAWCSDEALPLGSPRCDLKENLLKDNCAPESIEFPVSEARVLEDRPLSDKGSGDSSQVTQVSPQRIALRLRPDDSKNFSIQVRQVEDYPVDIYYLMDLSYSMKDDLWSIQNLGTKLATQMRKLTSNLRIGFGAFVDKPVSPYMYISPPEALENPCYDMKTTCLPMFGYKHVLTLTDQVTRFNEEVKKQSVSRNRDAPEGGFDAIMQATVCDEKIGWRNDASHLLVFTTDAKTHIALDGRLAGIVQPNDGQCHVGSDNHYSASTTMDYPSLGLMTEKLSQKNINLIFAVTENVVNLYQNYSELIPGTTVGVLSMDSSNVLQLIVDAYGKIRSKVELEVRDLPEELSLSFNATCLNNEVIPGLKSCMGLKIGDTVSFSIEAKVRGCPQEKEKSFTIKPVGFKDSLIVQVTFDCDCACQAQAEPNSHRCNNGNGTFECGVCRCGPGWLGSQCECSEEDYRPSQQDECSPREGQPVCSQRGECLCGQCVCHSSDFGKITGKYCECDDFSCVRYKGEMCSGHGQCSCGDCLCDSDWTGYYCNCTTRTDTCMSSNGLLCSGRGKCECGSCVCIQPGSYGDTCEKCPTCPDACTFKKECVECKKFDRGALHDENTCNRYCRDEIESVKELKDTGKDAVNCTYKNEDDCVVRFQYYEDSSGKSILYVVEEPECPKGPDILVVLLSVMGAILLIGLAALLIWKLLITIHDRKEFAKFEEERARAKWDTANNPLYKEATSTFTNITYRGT
UniProt P08514, 32-887 limits assumed: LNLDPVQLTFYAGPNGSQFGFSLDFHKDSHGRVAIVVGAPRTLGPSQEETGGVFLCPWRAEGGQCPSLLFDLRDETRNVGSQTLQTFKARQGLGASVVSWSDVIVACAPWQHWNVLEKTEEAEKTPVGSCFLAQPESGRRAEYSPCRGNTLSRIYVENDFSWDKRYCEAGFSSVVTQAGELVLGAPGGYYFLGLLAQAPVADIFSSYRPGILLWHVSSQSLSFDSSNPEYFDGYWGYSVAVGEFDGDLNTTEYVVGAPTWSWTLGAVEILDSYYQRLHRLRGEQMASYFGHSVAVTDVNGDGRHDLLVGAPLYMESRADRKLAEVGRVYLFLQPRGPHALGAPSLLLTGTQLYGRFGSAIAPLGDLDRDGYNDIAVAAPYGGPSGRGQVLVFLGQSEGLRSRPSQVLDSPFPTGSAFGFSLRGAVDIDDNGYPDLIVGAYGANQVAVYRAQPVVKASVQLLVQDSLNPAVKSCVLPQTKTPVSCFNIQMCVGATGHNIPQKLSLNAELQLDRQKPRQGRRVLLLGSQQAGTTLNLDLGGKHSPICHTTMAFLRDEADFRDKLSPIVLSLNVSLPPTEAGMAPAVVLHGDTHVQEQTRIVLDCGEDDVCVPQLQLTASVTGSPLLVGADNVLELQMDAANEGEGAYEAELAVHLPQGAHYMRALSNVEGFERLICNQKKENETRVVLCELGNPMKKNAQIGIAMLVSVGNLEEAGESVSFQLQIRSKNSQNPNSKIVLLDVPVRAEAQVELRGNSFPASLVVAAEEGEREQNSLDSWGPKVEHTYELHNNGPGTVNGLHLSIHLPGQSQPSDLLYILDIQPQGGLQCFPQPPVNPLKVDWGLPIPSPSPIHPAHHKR
UniProt P08514, 891-1039 partner limits assumed: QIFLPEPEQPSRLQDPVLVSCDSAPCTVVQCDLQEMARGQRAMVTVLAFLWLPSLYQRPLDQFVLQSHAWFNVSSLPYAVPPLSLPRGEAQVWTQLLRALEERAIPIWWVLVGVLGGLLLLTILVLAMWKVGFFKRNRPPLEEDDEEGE

How the values were obtained:
human fibrinogen = human fibrinogen (Homo sapiens, UniProt P02679); conditions: read-out: affinities for human fibrinogen
[1] = molecular target: fragment D from fibrinogen (Homo sapiens, UniProt P02679); conditions: read-out: affinity (KGPRP) for fragment D
[2] = molecular target: fibrinogen receptor (GpIIb IIIa) (Homo sapiens, UniProt P05106+P08514); conditions: Table 6, target GpIIb IIa

Substance | Kd (human fibrinogen) [µM] | Kd [1] [µM] | Kd [2] [µM]
GPRP | 25 | 20 | –
RGDF | – | – | 10
